The source of these data is US4339379A, “N-Acrylcarnosine aluminum salts” (Nippon Chemiphar Co., Ltd., priority 1979, dated 1982).

In this series the test system is rats. Particulars: P.O.

Where two headings read alike, the source gives them in different places.

For the substance N-acetyl-DL-carnosine aluminum salt, the LD50 (Female rats) was > 10,000 mg/kg and the LD50 (Male rats) is reported as > 10,000 mg/kg.
With N-acetyl-L-carnosine aluminum salt [B], the LD50 is on record as > 10,000 mg/kg (Female rats) and > 10,000 mg/kg (Male rats).
